Data reported in patent US11666572B2, “Treatment of HER2 positive cancers” (Seagen Inc., priority 2017, dated 2023).

Columns and labels:
[1] = tested on: HER2 positive metastatic CRC (wild-type KRAS exon 2); settings: HERACLES patients, previous treatment with cetuximab or panitumumab; cited from earlier work
[2] = tested on: CTG-0927 HER2 positive cholangiocarcinoma PDX model; assay: CTG-0927 cholangiocarcinoma PDX model, tumor growth inhibition; type: in vivo, Mice; settings: study day 28, tucatinib 50 mg/kg orally twice per day, trastuzumab 20 mg/kg IP once every three days
Description: (§1) The term “tumor growth inhibition (TGI) index” refers to a value used to represent the degree to which an agent (e.g., tucatinib, an anti-HER2 antibody, or a combination thereof) inhibits the growth of a tumor when compared to an untreated control. The TGI index is calculated for a particular time point (e.g., a specific number of days into an experiment or clinical trial) according to the following formula:
(§2) [formula] where “Tx Day 0” denotes the first day that treatment is administered (i.e., the first day that an experimental therapy or a control therapy (e.g., vehicle only) is administered) and “Tx Day X” denotes X number of days after Day 0. Typically, mean volumes for treated and control groups are used.
(§3) Tucatinib was administered orally at a dose of 50 mg/kg twice per day for 28 days (study days 0-27). […] A vehicle-only group was included as a negative control.

[3] = tested on: Calu-3 NSCLC xenograft model; assay: Calu-3 NSCLC xenograft model, tumor growth inhibition; type: in vivo, Mice; settings: study day 28, tucatinib 50 mg/kg orally twice per day, trastuzumab 20 mg/kg IP once every three days, from study day 7
Description: as §1, §2
(§4) For the Calu-3 study, tucatinib was administered orally at a dose of 50 mg/kg twice per day for 21 days, beginning on study day 7. […] Seven doses of trastuzumab were administered. A vehicle-only group was included as a negative control. Three individual animals received dose holidays (one in the negative control group and two in the combination therapy group).

[4] = tested on: CTG-0138 esophageal cancer PDX model; assay: CTG-0138 esophageal cancer PDX model, tumor growth inhibition; type: in vivo, Mice; settings: study day 30, tucatinib 50 mg/kg orally twice per day, trastuzumab 20 mg/kg IP once every three days
Description: as §1, §2, §3

[5] = tested on: GXA 3039 gastric cancer PDX model; assay: GXA 3039 gastric cancer PDX model, tumor growth inhibition; type: in vivo, Mice; settings: study day 29, tucatinib 50 mg/kg orally twice per day, trastuzumab 20 mg/kg IP once every three days
Description: as §1, §2, §3

[6] = tested on: GXA 3038 gastric cancer PDX model; assay: GXA 3038 gastric cancer PDX model, tumor growth inhibition; type: in vivo, Mice; settings: study day 28, tucatinib 50 mg/kg orally twice per day, trastuzumab 20 mg/kg IP once every three days
Description: as §1, §2, §3

[7] = tested on: NCI-H2170 NSCLC xenograft model; assay: NCI-H2170 NSCLC xenograft model, tumor growth inhibition; type: in vivo, Mice; settings: study day 39, tucatinib 50 mg/kg orally twice per day, trastuzumab 20 mg/kg IP twice per week, from study day 18
Description: as §1, §2, §4
For the NCI-H2170 study, tucatinib was administered orally at a dose of 50 mg/kg twice per day for 21 days, beginning on study day 18. […] A vehicle-only group was included as a negative control.

[8] = tested on: GXA 3054 gastric cancer PDX model; assay: GXA 3054 gastric cancer PDX model, tumor growth inhibition; type: in vivo, Mice; settings: study day 17, tucatinib 50 mg/kg orally twice per day, trastuzumab 20 mg/kg IP once every three days
Description: as §1, §2, §3

[9] = tested on: CTG-0137 esophageal cancer PDX model; assay: CTG-0137 esophageal cancer PDX model, tumor growth inhibition; type: in vivo, Mice; settings: study day 15, tucatinib 50 mg/kg orally twice per day, trastuzumab 20 mg/kg IP once every three days
Description: as §1, §2, §3

[10] = reference 23; cited from earlier work
CTG-0784 CRC PDX model = assay: CTG-0784 CRC PDX model, tumor growth inhibition; type: in vivo, Mice; settings: study day 29, tucatinib 50 mg/kg orally twice per day, trastuzumab 20 mg/kg IP once every three days
Description: as §1, §2, §3

Substance | ORR on previous treatment [1] [%] | Observed TGI (%) [2] [%] | Observed TGI (%) [3] [%] | Observed TGI (%) [4] [%] | Observed TGI (%) [5] [%] | Observed TGI (%) [6] [%] | Observed TGI (%) [7] [%] | Observed TGI (%) [8] [%] | Observed TGI (%) [9] [%] | Blood-brain barrier penetration [10] | Observed TGI (%) (CTG-0784 CRC PDX model)
cetuximab | 0 | – | – | – | – | – | – | – | – | – | –
trastuzumab | – | 63 | 86 | −34 | 38 | 50 | 61 | 93 | 55 | do not penetrate the blood-brain barrier | 36
